Earlier results as cited in patent US20050163849A1, “Compositions and dosage forms for enhanced absorption of iron” (priority 2003, published 2005).
Read-outs that look alike come from different tables or passages of the source.

What was measured:
[1] = cited from earlier work
[2] = cited from earlier work; remark: listed apart in the source

iron
Individuals reporting undesirable symptoms ([1]; 200 mg of iron per day, divided into three equal portions): 25% | Undesirable side effects ([1]; iron dosage 400 mg): 40% | Fraction of oral dose absorbed ([2]; 195 mg oral daily dose): 18% | Fraction of oral dose absorbed ([2]; total daily dose of 35 mg given orally): 40%
